{"source": "patent US8951993B2", "about": "“Phosphorus containing compounds as protein kinase inhibitors” (Jiangsu Hansoh Pharmaceutical Co., Ltd., priority 2011, dated 2015)", "origin": "cited, not measured here", "system": "advanced non-small cell lung cancers carrying activated ALK", "details": "phase I study, advanced NSCLC carrying activated ALK; cited from earlier work", "data": [{"smiles": "C[C@@H](Oc1cc(-c2cnn(C3CCNCC3)c2)cnc1N)c1c(Cl)ccc(F)c1Cl", "note": "[crizotinib]", "values": [{"measurement": "overall response rate", "result": 57, "unit": "%"}, {"measurement": "rate of stable disease", "result": 33, "unit": "%"}]}]}
